These results are taken from patent US7211395.

Sequences of proteins named here, by UniProt entry; tags and fusion partners are left off.
goat serum albumin (goat), P85295, UniProt P85295, whole entry: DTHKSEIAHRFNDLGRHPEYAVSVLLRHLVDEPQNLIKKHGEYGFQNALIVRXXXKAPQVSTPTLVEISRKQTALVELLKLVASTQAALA

The target of assay [1] is human serum albumin (HSA) (human), P02768. The assay can be described thus: FP. Conditions: modification not given.
For assay [2] the target is unchanged. As to the kind of experiment: FP. Conditions: modification not given. The source holds these as a separate data set.
The target is the same in assay [3]. As to the kind of experiment: FP. Conditions: modification not given. This is another data set of the same source.
For assay [4] the target is unchanged. As to the kind of experiment: FP. Conditions: modification not given. This is another data set of the same source.
Assay [5] shares this target. As to the kind of experiment: FP. Conditions: modification not given. The source holds these as a separate data set.
Assay [6] concerns the target goat serum albumin (goat), P85295. As to the kind of experiment: FP, PBS pH 7.4. Conditions: disulfide cyclic, N-acetyl, C-amide, fluorescein on Lys; also SEQ32.
Assay [7] has the same target. As to the kind of experiment: FP, pH 6.2, no NaCl. The following applies: disulfide cyclic, N-acetyl, C-amide, fluorescein on Lys; also SEQ32.
Assay [8] addresses human serum albumin (HSA) (human), P02768. As to the kind of experiment: FP. The following applies: modification not given. The source holds these as a separate data set.
Assay [9] has the same target. As to the kind of experiment: FP. The following applies: modification not given. The source holds these as a separate data set.

The term Kd denotes a measure of binding affinity in units of concentration. Read a low Kd as higher affinity. Consider AEGTGDFWFCDRAAWYPQHLCEFLDPEGGGK [DX-236 Ala mutant 123], for which the values for the dissociation constant (Kd) in assay [1] and in assay [2] were 4.5 µM and 1.1 µM, respectively.
Turning to AEGTGDFWFCDRIAAYPQHLCEFLDPEGGGK [DX-236 Ala mutant 122], the dissociation constant Kd in assay [1] came out at 44 µM.
AEGTGDFWFCDRIAWYPQHLCEFLAPEGGGK [DX-236 Ala mutant 113]: the Kd in [3] came to 1.7 µM; in assay [1], 10.5 µM.
In assay [1], AEGTGDFWFCDRIAWYPQALCEFLDPEGGGK [DX-236 Ala mutant 118] returned a Kd of 1.7 µM.
As to AEGTGDFWFCDRIAWYPQHACEFLDPEGGGK [DX-236 Ala mutant 117], the Kd in [1] stood at 34.5 µM.
As for AEGTGDFWFCDRIAWYPQHLCEALDPEGGGK [DX-236 Ala mutant 115], the Kd stood at 44 µM in assay [1] and 1.7 µM in assay [4].
In turn, AEGTGDFWFCARIAWYPQHLCEFLDPEGGGK [DX-236 Ala mutant 125] showed a Kd in assay [1] of 1.6 µM.
Consider AEGTGDFWFCDRIAWYPQHLCAFLDPEGGGK [DX-236 Ala mutant 116], for which the Kd in assay [1] stood at 1.7 µM; in [5] it was 6.6 µM.
In assay [1], AEGTGDFWFCDRIAWYAQHLCEFLDPEGGGK [DX-236 Ala mutant 120] returned a Kd of 43 µM.
As to AEGTGDFWFCDRIAWYPQHLCEFLDPEGGGK [DX-236], the Kd in assay [6] is 23 µM; in assay [7], 1.6 µM.
On to AEGTGDFWACDRIAWYPQHLCEFLDPEGGGK [DX-236 Ala mutant 126], for which the Kd in assay [1] amounted to 1.1 µM; in assay [8] it was 43 µM.
AEGTGDFWFCDRIAWYPQHLCEFADPEGGGK [DX-236 Ala mutant 114]: the Kd in assay [1] came out at 47 µM; in assay [9], 2.1 µM.
For the molecule DRIAWYPQHLGGGK [DX-236 truncation SEQ 44], in assay [1], the Kd was found to be 125 µM.
